Reference: ChEMBL document CHEMBL1132477, “Design and synthesis of novel alpha(1)(a) adrenoceptor-selective antagonists. 2. Approaches to eliminate opioid agonist metabolites via modification of linker and 4-methoxycarbonyl-4-phenylpiperidine moiety” (J Med Chem, 1999)

By UniProt entry, the sequences of proteins in these tests, tags left out.
UniProt P35372, whole entry, looked up: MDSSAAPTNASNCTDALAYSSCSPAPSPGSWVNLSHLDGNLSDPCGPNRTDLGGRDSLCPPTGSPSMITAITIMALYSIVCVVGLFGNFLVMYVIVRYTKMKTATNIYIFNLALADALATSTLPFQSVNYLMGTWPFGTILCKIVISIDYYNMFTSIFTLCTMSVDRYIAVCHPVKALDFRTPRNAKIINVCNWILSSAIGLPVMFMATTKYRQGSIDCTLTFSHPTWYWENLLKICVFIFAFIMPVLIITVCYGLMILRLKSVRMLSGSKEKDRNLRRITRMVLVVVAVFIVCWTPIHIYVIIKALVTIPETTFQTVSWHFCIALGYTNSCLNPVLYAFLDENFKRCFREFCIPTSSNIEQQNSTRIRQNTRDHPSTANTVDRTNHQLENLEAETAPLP

Target: Mu-type opioid receptor (Homo sapiens, UniProt P35372)
Experiment: Inhibitory concentration against Opioid receptor mu 1 using [3H]DAMGO ligand

CCOC(=O)C1(c2ccccc2)CCNCC1
IC50: 1100 nM
